Values quoted from earlier work, collected in article PMC9031317, “Development of Self-Administered Formulation to Improve the Bioavailability of Leuprorelin Acetate” (Pharmaceutics, 2022).

Settings: Table 1 property; source not given

PI: 9.1
Substance: Leuprolide acetate [Leuprolide acetate (LA)]
